Nrf2 ARE act: activates Nrf2 signaling. AREc32 ARE-luciferase reporter (MCF7-derived line), luminescence, 24 h. Potency, µM (highest dose often 46.1 µM), for the others: at the top dose activation, actives largely listed as activators. hit rate 0.31% among 410,000. AID 624171; also: potency is read from the fitted curve at half-maximal effect; % of control where 0% means no effect; nearly all actives have a fitted effect of over 65% in size
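Luciferase luminescence (Steady-Glo, 30 min at room temperature) served as the read-out of ARE activation in AREc32 cells treated with compounds for 24 hr at 37 deg C.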
ClpP mod: qHTS Assay for Activators of ClpP; purified B. subtilis ClpP, FRET peptide cleavage, 20 min; Potency, µM (series often up to 57.5 µM), for inactives: at the highest dose activity change, negative = active; hit rate 1.9% among 340,000; active = well fitted falling curve with a large enough effect; inconclusive = small, poorly fitted or top-dose-only effect; inactive = no such curve, though single readings can be large or run the other way; also: potency is read from the fitted curve at half-maximal effect; the source files actives as falling curves though it sought activators and does not explain the sign; nearly all actives have a fitted effect of over 65% in size
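Buffer: 100 mM Tris/HCl pH8, 100 mM KCl, 0.05% low protease BSA, 2.5% glycerol, 0.01% Tween-20. ClpP 10 microg/mL final; 20 min RT; delta FRET normalized to ADEP and DMSO controls.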
IL-2 act: activators of IL-2. activation, % (series mostly up to about 46 µM). IL-2 activation reporter assay, cell-based qHTS; stimulated with anti-CD3/CD4/CD28 beads; in transgenic mouse T cells. hit rate 0.065% among 360,000; in the data active = activation above about 50%; inconclusive = mostly about 30% to 49%; also: 0% is about no effect
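Quantitative HTS in unstimulated transgenic mouse T cells, with memory T cells as non-tolerant control and PMA/ionomycin as tolerance-bypass control. Compound pretreatment lasted 60 minutes before 18 h bead stimulation; EGFP/DsRed fluorescence read.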
A549 viability: kills or reduces viability of A549 cells in Nrf2 counter-screen; A549 ARE-Fluc cells, CellTiter-Fluor viability, 18-24 h; Potency, µM (titrated, usually from 46 µM), for the others: at the highest dose activity change, negative = cytotoxicity, most hits filed as inhibitors; hit rate 0.16% among 390,000; also: potency is read from the fitted curve at half-maximal effect; % is scaled to controls: 0 for no effect and ±100 for the full control effect
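A549 ARE_Fluc cells in 5% FBS OPTI-MEM were exposed to compounds in concentration-response for 18-24 h at 37 deg C. Viability was read by CellTiter-Fluor fluorescence (Ex 405/Em 525) after 30 min, before the luciferase read.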
miR-21 reporter: miR-21 reporter, rising signal | Potency, µM (highest dose often 38.3 µM), for inactives: at the highest dose reporter change, positive = more light | 340,000 tested, under 10 active | HeLa miR-21 FLuc reporter, luciferase, 48 h; active = well fitted rising curve with a large enough effect; inconclusive = small, poorly fitted or top-dose-only effect; inactive = no such curve, though single readings can be large or run the other way;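 note: % of control where 0% means no effect; miR-21 action dims this reporter so a rising signal means less miR-21 action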
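Compounds were titrated across several concentrations (up to approximately 40 uM) and incubated 48 hours with HeLa miR-21-FLuc reporter cells (miR-21 target sequence downstream of FLuc, endogenous miR-21). Readout was firefly luciferase luminescence after lytic detection reagent.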
Nrf2 inh: Nrf2 pathway inhibition | A549 ARE-Fluc reporter, luciferase luminescence, 18-24 h | Potency, µM (highest dose often 46 µM), inactives show top-dose activity change, negative = inhibition, most hits filed as inhibitors | hit rate 2.1% among 360,000 | AID 504444; also: potency is read from the fitted curve at half-maximal effect; % is scaled to controls: 0 for no effect and ±100 for the full control effect; nearly all actives have a fitted effect of over 60% in size
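Cells were seeded and rested 2 h, then exposed to compounds for 18-24 h. CellTiter-Fluor was read first as a viability measure. BugLite was added 15 min before the final luminescent read of ARE-luciferase activity in A549 cells.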
* = called active by the depositor; ? = inconclusive; nt = no result; [ ] = remark or other dose. Rows were chosen to be rich in hits. Some 3.7% of all compounds tested hit in one or more screens of this group. Unless noted, calls follow the shape of the dose curve; as a rule, active = well fitted curve in the direction sought with a large enough effect; inconclusive = small, poorly fitted or top-dose-only effect, or another doubt; inactive = no such curve, though single readings can be large; an effect the other way counts as inactive or inconclusive.

Codes: A = Nrf2 ARE act; B = ClpP mod; C = IL-2 act; D = A549 viability; E = miR-21 reporter; F = Nrf2 inh
1. O=C(Cn1c(-c2cccs2)cc2cc(Cl)ccc21)NCc1ccccc1
  A: 7.9%; B: 28.2µM*; C: nt; D: -2.9%; E: 0.3%; F: ?

2. CCC(C)NC(=O)Cn1c(-c2cccs2)cc2cc(Cl)ccc21 (centres undefined)
  A: -0.8%; B: ?; C: nt; D: 1.4%; E: 1.9%; F: 7.1%

3. O=C(Cn1c(-c2cccs2)cc2ccccc21)NCCCN1CCN(c2ccccc2F)CC1
  A: -2.5%; B: ?; C: nt; D: ?; E: ?; F: ?

4. CCN(CC)CCCNC(=O)Cn1c(-c2cccs2)cc2cc(Cl)ccc21
  A: ?; B: 28.2µM*; C: nt; D: -8.5%; E: -1.2%; F: 9.3%

5. CCN1CCN(CCCNC(=O)Cn2c(-c3cccs3)cc3cc(Cl)ccc32)CC1
  A: 12.3%; B: 31.6µM*; C: nt; D: -10.9%; E: -6.8%; F: 10.6%

6. CN1CCN(CCCNC(=O)Cn2c(-c3cccs3)cc3cc(Cl)ccc32)CC1
  A: 17.4%; B: 31.6µM*; C: nt; D: -5.3%; E: -6.4%; F: -7.4%

7. COc1ccc(C(=O)C[n+]2cccc3cc(Cl)ccc32)cc1
  A: nt; B: -2.3%; C: nt; D: nt; E: nt; F: nt

8. COc1ccc(NC(=O)CSc2ncccc2C(=O)O)cc1OC
  A: 0.0%; B: -1.4%; C: nt; D: 6.8%; E: 4.9%; F: nt

9. Cc1nc(NC(=S)NC(=O)COc2ccccc2Cl)ccc1Br
  A: 0.0%; B: 28.2µM*; C: -0.8; D: -0.2%; E: -3.0%; F: -3.0%

10. Cc1ccc(CSC2=Nc3ccccc3C3=NC(CCC(=O)N4CCN(c5ccccc5)CC4)C(=O)N23)cc1 (centres undefined)
  A: 2.8%; B: -16.6%; C: nt; D: ?; E: -29.5%; F: -2.4%

Pulled one by one from the entries so far (three):
Codes: A = Nrf2 ARE act; B = ClpP mod; C = IL-2 act; D = A549 viability; E = miR-21 reporter; F = Nrf2 inh
2. CCC(C)NC(=O)Cn1c(-c2cccs2)cc2cc(Cl)ccc21 (centres undefined)
  A: -0.8%; B: ?; C: nt; D: 1.4%; E: 1.9%; F: 7.1%

6. CN1CCN(CCCNC(=O)Cn2c(-c3cccs3)cc3cc(Cl)ccc32)CC1
  A: 17.4%; B: 31.6µM*; C: nt; D: -5.3%; E: -6.4%; F: -7.4%

5. CCN1CCN(CCCNC(=O)Cn2c(-c3cccs3)cc3cc(Cl)ccc32)CC1
  A: 12.3%; B: 31.6µM*; C: nt; D: -10.9%; E: -6.8%; F: 10.6%

Next section.
Codes: A = Nrf2 ARE act; B = ClpP mod; C = IL-2 act; D = A549 viability; E = miR-21 reporter; F = Nrf2 inh
11. Cc1cc(C(=O)NCc2cc(C)n(C)n2)sc1-c1ccccc1
  A: 3.3%; B: 25.1µM*; C: -1.6; D: -2.6%[1.84 µM]; E: -3.6%; F: ?

12. Cc1cc(CNC(=O)c2cc(-c3ccccc3)nc3ccccc23)nn1C
  A: 0.0%; B: 0.1%; C: 5.0; D: -16.6%; E: 7.8%; F: ?

13. O=C(Cn1c(=O)n(Cc2nc(-c3ccccc3)no2)c(=O)c2cc3c(cc21)OCO3)Nc1ccccc1
  A: 0.2%; B: 17.8µM*; C: nt; D: 1.5%; E: 6.8%; F: 12.8%

14. O=C(Cn1c(=O)n(Cc2nc(-c3ccccc3)no2)c(=O)c2cc3c(cc21)OCO3)Nc1ccc(Cl)cc1
  A: -0.1%; B: 12.6µM*; C: nt; D: 1.9%; E: 20.1%; F: 18.5%

15. Cc1ccc(NC(=O)Cn2c(=O)n(Cc3nc(-c4ccccc4)no3)c(=O)c3cc4c(cc32)OCO4)cc1F
  A: -0.8%; B: 4.6%; C: nt; D: -0.7%; E: 1.6%; F: 10.8%

16. COc1ccc(N2CCN(S(=O)(=O)CCNC(=O)c3ccc(OC(C)C)cc3)CC2)cc1
  A: -0.3%; B: -5.6%; C: nt; D: -5.8%; E: 0.8%; F: nt

17. O=[S+]([O-])(c1ccc2ncsc2c1)N1CCN([S+](=O)([O-])c2c(F)cccc2F)CC1
  A: nt; B: nt; C: nt; D: -0.9%; E: nt; F: 10.4%

18. COC(=O)c1cc(C(=O)c2cc(Cl)ccc2O)coc1=N
  A: 2.8%; B: 0.8%; C: 1.2; D: -2.0%; E: -1.0%; F: -4.1%

19. COCCOC(=O)c1cc(C(=O)c2cc(F)ccc2O)coc1=N
  A: 0.3%; B: 15.8µM*; C: -3.0; D: -2.4%; E: -3.6%; F: -10.1%

20. Brc1ccc(-c2csc3[n+]2CCCCC3)cc1
  A: 2.3%; B: nt; C: 0.0; D: -9.3%; E: 3.6%; F: 16.4µM*

21. COc1cc(/C=C/c2ccc3ccccc3n2)cc(OC)c1OC
  A: nt; B: 4.5%; C: nt; D: nt; E: nt; F: nt

22. CN1C(=O)C2(OCC(COc3ccc(Cl)cc3)O2)c2ccccc21 (centres undefined)
  A: 0.7%; B: -2.0%; C: -0.2; D: -10.3%; E: -0.5%; F: 18.4µM*

23. CCOC(=O)c1csc(NC(=O)c2ccc(OCC)cc2)n1
  A: -0.2%; B: nt; C: 1.1; D: -23.3%; E: 8.8%; F: 20.6µM*

24. COc1ccc(-c2c(NC(C)=O)n(C)c3ccccc3c2=O)cc1
  A: 0.1%; B: 25.1µM*; C: 0.4; D: 5.0%; E: -2.0%; F: 28.1%

25. COc1ccc(-c2c(NC(=O)C(C)C)n(C)c3ccccc3c2=O)cc1
  A: -1.3%; B: 28.2µM*; C: -0.2; D: 8.2%; E: 0.8%; F: nt

26. O=C(c1ccccc1)C1OC1C(=O)c1ccccc1 (centres undefined)
  A: 12.6µM*; B: nt; C: -0.9; D: -9.7%; E: nt; F: ?

27. Cc1cccc(NC(=O)C(=O)NCC(c2ccc3c(c2)OCO3)N2CCOCC2)c1C (centres undefined)
  A: -0.8%; B: -1.3%; C: nt; D: 6.3%; E: -0.9%; F: nt
